Assay results as given in patent publication US8865744B1, “(Cyano-dimethyl-methyl)-isoxazoles and -[1,3,4]thiadiazoles” (Boehringer Ingelheim International GmbH, priority 2013, dated 2014).

Amino acid sequences for entries named in this document (tags omitted).
UniProt P21554, whole entry: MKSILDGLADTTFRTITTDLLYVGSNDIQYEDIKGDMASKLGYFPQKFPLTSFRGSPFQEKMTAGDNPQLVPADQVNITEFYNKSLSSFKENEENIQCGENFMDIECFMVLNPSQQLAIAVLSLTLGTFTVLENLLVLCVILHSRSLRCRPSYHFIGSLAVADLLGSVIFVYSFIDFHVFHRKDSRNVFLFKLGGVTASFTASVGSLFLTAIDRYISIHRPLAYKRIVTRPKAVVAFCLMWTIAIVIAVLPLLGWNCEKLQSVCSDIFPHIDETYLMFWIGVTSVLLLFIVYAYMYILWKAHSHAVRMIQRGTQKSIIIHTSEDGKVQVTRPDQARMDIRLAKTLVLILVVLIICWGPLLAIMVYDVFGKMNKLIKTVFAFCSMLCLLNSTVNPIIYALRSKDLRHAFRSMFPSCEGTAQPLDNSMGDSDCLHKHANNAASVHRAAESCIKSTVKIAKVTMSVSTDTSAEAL
UniProt P34972, whole entry: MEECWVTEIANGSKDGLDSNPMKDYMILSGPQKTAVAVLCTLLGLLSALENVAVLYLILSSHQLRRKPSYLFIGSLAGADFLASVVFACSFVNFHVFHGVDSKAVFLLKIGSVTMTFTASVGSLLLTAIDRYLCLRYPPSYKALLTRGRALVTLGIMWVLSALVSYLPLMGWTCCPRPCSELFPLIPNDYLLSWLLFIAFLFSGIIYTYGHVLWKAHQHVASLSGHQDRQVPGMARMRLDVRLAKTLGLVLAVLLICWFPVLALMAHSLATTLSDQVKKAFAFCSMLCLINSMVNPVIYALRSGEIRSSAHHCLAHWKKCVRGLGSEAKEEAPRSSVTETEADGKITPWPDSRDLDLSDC

Experiments:
human CB1R = target: T1, human CB1R (Homo sapiens, UniProt P21554); assay: CB1 cAMP (Assay 2): In vitro testing of CB1 potency; format: cell-based
T1 construct: host or cells: CHO cells

human CB2R = target: T2, human CB2R (Homo sapiens, UniProt P34972); assay: CB2 cAMP (Assay 1): In vitro testing of CB2 potency; format: cell-based
T2 construct: host or cells: CHO cells

## CC(C)(C#N)c1cc(NC(=O)[C@@H]2CCCN2C2CCOCC2)on1 [Example 6, (S)-1-(Tetrahydro-pyran-4-yl)-pyrrolidine-2-carboxylic acid[3-(cyano-dimethyl-methyl)-isoxazol-5-yl]-amide]
Human CB1R
  EC50: 87 µM
Human CB2R
  EC50: 11 nM
